Source: ChEMBL document CHEMBL4480360, “Design and characterization of a heterocyclic electrophilic fragment library for the discovery of cysteine-targeted covalent inhibitors” (Medchemcomm, 2019)

experiment: Glutathione reactivity assessed as thiol reactivity rate constant at 250 uM up to 72 hrs by HPLC-MS or NMR analysis; format: physicochemical; parameters: unit not given beside the values
Procedure, shortened: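 Fragment 250 µM mixed with 5 mM glutathione in PBS pH 7.4 containing 5% acetonitrile, with 100 µM indoprofen as internal standard. For fragments not detectable at 250 µM, levels were reversed (5 mM fragment, 250 µM GSH). HPLC-MS at 0–72 h. Internal-standard-corrected AUCs were fitted by OLS linear regression. k_GSH = k_eff − k_deg, and t1/2 = ln2/k_GSH.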

Compound | K
N#Cc1nccs1 | 0.0868
Ic1ccncc1 | 0.01
C#Cc1ncccn1 | 0.0148

Continued, values first:

K | Compound
0.0147 | N#Cc1ccncn1
1.4615 | N#Cc1ncco1
0.693 | N#Cc1cocn1
0.0132 | N#Cc1ncc[nH]1
